From publication PMC10706087, “The Subtype Selectivity in Search of Potent Hypotensive Agents among 5,5-Dimethylhydantoin Derived α1-Adrenoceptors Antagonists” (International Journal of Molecular Sciences, 2023)

Molecular target: T1, human adrenergic receptor α1A (Homo sapiens, UniProt P35348)
T1 sequence (P35348 1-466): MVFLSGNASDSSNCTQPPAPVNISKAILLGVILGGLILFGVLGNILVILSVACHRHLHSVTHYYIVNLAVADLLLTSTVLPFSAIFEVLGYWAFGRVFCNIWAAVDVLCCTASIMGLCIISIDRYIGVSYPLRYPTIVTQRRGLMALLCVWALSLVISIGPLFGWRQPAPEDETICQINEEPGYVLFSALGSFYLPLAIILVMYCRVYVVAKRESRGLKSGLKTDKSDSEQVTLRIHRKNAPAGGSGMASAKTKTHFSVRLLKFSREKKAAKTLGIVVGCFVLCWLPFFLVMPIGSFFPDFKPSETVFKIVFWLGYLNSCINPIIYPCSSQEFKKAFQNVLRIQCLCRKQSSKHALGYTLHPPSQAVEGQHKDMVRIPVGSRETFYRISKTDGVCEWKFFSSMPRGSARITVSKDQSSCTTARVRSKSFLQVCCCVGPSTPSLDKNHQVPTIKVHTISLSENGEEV
Experiment: Intrinsic activity, aequorin luminescence functional assay at α1A-AR
Format: cell-based
Settings: agonist/antagonist profile
Description: The subtype selectivity for α1A and α1B was calculated as IC50(α1B-AR)/IC50(α1A-AR) and IC50(α1A-AR)/IC50(α1B-AR) ratio, respectively.
Intrinsic activity at the α1-AR subtypes studies were performed using the cells expressing mitochondrially-targeted aequorin and one of the human adrenergic receptor α1A or α1B (PerkinElmer, Boston, MA, USA), according to the manufacturer’s instructions. For measurement, frozen cells were thawed and re-suspended in 10 mL of assay buffer containing 5 μM “Coelenterazine h”. This cell suspension was put in a 10 mL Falcon tube, fixed onto a rotating heel, and incubated overnight at rt in the dark (8 rpm; 45° angle). Cells were diluted with Assay Buffer to 5000 cells/20 μL. […] The light emitted was recorded for 20 s. […] Luminescence was measured using the multidetection microplate reader (POLARstar Omega, BMG LABTECH, Ortenberg, Germany).
All statistics were performed using GraphPad Prism, Version 6.0 (GraphPad Software, San Diego, CA, USA). In the radioligand binding study, data were analyzed by a one-site curve-fitting equation, and inhibition constants (Ki) values were calculated via the Cheng-Prusoff equation [63]. In functional studies, data were analyzed using a sigmoidal dose-response (variable slope) equation. Arterial blood pressure data were analyzed using a two-way ANOVA with Sidak’s post-hoc test for multiple comparisons. […]

α1A-AR Profile: Antagonist
SMILES: COc1cc2nc(N3CCN(C(=O)c4ccco4)CC3)nc(N)c2cc1OC [Prazosin, prazosin hydrochloride, reference compound]

Structures can show the parent of a compound that is named as a salt.
